scFv variants of Ab-14 (heavy chain) against a SARS-CoV-2 spike peptide

Source: Li et al. 2023 (doi:10.1038/s41467-023-39022-2), MIT Lincoln Laboratory and A-Alpha Bio; data file from the FLAb repository.

Antigen: PDVDLGDISGINAS, a 14-residue peptide of the SARS-CoV-2 spike HR2 region.

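The parent was found by panning a naive human phage display library on the peptide. The variants were designed computationally from a first round of random CDR variants and then made and measured. Several design methods are mixed in this list. The scFvs were displayed on barcoded MATa yeast, the peptide on MATalpha yeast. Binding brings cells together so that they mate, and sequencing counts the barcode pairs among the diploids. Scores were corrected for input abundance and mapped to Kd with protein pairs of known affinity run in the same pool. There are six technical replicates.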

Parent scFv Ab-14: VH joined to VL by the linker GGGGSGGGGSGGGGS. Changes lie in the heavy chain CDRs alone.
VH: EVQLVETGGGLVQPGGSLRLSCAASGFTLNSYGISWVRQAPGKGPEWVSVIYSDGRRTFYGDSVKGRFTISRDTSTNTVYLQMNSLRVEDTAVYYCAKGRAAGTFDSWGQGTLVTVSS
VL: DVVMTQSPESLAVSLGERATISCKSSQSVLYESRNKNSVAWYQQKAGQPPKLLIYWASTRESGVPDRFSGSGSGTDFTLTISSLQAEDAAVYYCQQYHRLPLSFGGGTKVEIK

The parent's heavy chain CDRs are GFTLNSYGIS, VIYSDGRRTFYGDSVK, GRAAGTFDS; each variant's own CDRs replace them letter for letter.
Each Kd is an estimate from the mating assay, the geometric mean of the replicates in which the pair was seen; lower is stronger.
An entry "nd" has no value in the source: the pair was not observed among the diploids in any replicate. This suggests poor binding but is not conclusive.
A sequence measured in both rounds can read differently, since the two assays cover different ranges.
The authors averaged sequences with at least three values out of six and counted those with two or fewer as poor binders.
Background: pairings of all heavy chain designs with three empty control strains gave a value in 1% of cases (median 120 nM, 5th percentile 7.0 nM). Values in that range, when seen in few replicates, are hard to tell from nonspecific mating.
The parent sequence was in this pool as ten entries: three were never detected, three once, and four in most replicates, with averages from 2.2 nM to 240 nM.

Kd,detected,CDR-H1,CDR-H2,CDR-H3
nd,0/6,GFNIDEYGIS,VIYADGDRMSYDDAVK,GQISGHIDM
47 nM,6/6,GFVLNEYGIS,VIYSDGRRTFYDDSVK,GRAAGTFDS
nd,0/6,GFDLNSYGIS,VIYSDGRRTFYADSVK,GRAVGTFDS
nd,0/6,GFTLNDYGIS,VIYSDGRRTFYGDSVK,GRCAGTFES
nd,0/6,GFTLNSYGIS,VIYFDGKRTFYGDSVK,GRAAGIFFS
240 nM,1/6,GFDLNNYGIS,VIYSDGRRTFYGCSVK,NRAAGWFNS
530 pM,6/6,GFSLNDYGIS,VIYSDGRRTYYGDSVK,GRTAGTFDS
nd,0/6,GFTLNEYGIS,VIYSDGRRTFYGDSVK,GRCAVTFDQ
nd,0/6,GFTLNSYGIS,VIYSDGRRTAYGDSVK,GRLADTFDS
1.1 nM,6/6,GFDLNEYGIS,VIYADGSRTAYADSVK,GSNAGTFDM
190 nM,1/6,GFTLNSYGIS,VIYSDGRRTFYGDSVK,GMAAGTFDS
990 pM,6/6,GFSLNSYGIS,VIYSDGRRTFYSDSVK,GHAAGTFDS
13 nM,6/6,GFDLNEYGIS,VIYADGRRTFYSDSVK,GENAGTFVS
nd,0/6,GDSLNEYGIS,VIYADGSRSKYADAFK,GQVAGYFGV
nd,0/6,GFVLNSYGIS,VIYSDGRRTFYIDSVK,GQAAGTFDS
7.2 nM,3/6,GFTLNSYGIS,VIYSDGRRTFYKDSVK,GQTAGTFDK
94 pM,6/6,GFNLDEYGIS,VIYADGRRTAYADSVK,GENAGTFDV
nd,0/6,GDDLEEYGIS,VIYADGKRKAYKNKAK,GQTAGSFDV
nd,0/6,GFALDEYGIS,VIYADGSRSAYTSSVK,GVHNGDIMI
nd,0/6,GFSLNSYGIS,VIYSDGRRTFYKDSVK,GEAAGTFDS
52 nM,4/6,GFTLNSYGIS,VIYSDGRRTFYGDSVK,GVAAGTFDS
nd,0/6,GFTLESYGYS,VIYSDGRRTFYLDSVK,GYAAGTFDS
700 pM,6/6,GFDLNEYGIS,VIYADGKRTAYSDSVK,GTNAGTFDL
13 nM,6/6,GFTLNSYGIS,VIYSDGLRTFYTDSVK,GQAAGTFDS
1.7 µM,1/6,GFTLNSYGIS,VIYSDGRRTFYSDSVK,GMAVGTFDS
230 pM,6/6,GFDLNEYGIS,VIYADGRRTFYADSVK,GQLAGTFSM
33 nM,2/6,GFWLNEYGIS,VIYSDGRRTFYHDSVK,GRHAGTFDS
430 pM,6/6,GFDLNEYGIS,VIYADGVRTSYADSVK,GNTAGTFDV
300 pM,6/6,GFDLNEYGIS,VIYADGRRTQYIDSVK,GEIAGTFDT
30 nM,4/6,GFSLDEFGIS,VIYADGQRSAYSENVK,GQHGGMTVS
1.1 µM,1/6,GFNLNSYGIS,VIYSDGRRTFYVDRVK,GRQAGTFDS
87 nM,4/6,MFSLNSYGIS,VIYSDGRRTAYGDSVK,GRAAGTFDS
580 pM,6/6,GFDLDEYGIS,VIYADGMRTAYADSVK,GNVAGTFDA
nd,0/6,GFTLNSYGVS,VIYSDGRRTFYGDSQK,GAAAGIFDS
5.9 nM,6/6,GFELNSYGIS,VIYSDGRRTFYGDSVK,GEAAGTFDD
4.6 nM,4/6,GFTLESYGIS,VIYSDGKRTFYGDSVK,GQAAGTFDS
720 pM,6/6,GFSLNSYGIS,VIYSDGRRTFYSDSVK,GKVAGTFDS
3.2 nM,6/6,GFSLNSYGIS,VIYSDGRRTFYRDSVK,GQTAGTFDS
280 pM,6/6,GFNLDEYGIS,VIYADGMRTFYADSVK,GQVAGTFDS
11 nM,6/6,GFDLNEYGIS,VIYADGRRTFYADSVK,GENAGTFMS
44 nM,3/6,GFTLESYGIS,VIYSDGRRTFYIDSVK,GQAAGTFDS
nd,0/6,GFHLNSYGIS,VIYSDGRRTFYVDSVK,GQAAGTFDS
nd,0/6,GFTLNSYGIS,VIYSDGRRTFYGDSVK,GRWAKTKDS
220 pM,6/6,GFDLNEYGIS,VIYADGRRTFYADKVK,GENAGTFNV
1.0 nM,6/6,GFDLEEYGIS,VIYADGRRTFYADSVK,GENAGTFDI
300 pM,6/6,GFDLNEYGIS,VIYADGRRTAYADSVK,GETAGTFDV
50 nM,6/6,HFNLNSYGIS,VIYSDGRRTFYGDSVK,GKTAGTFDS
1.5 nM,6/6,GFDLNEYGIS,VIYADGMRTAYANSVK,GENAGTFDI
nd,0/6,GFDLDEYGIS,VIYADGMRKAYLDSFK,GIYGNGLWF
nd,0/6,GPTLNSYGIS,VIYADGRRTFYGDSVK,DRAAGTNKS
480 pM,6/6,GFDLNEYGIS,VIYADGMRTAYADSVK,GNIAGTFDM
nd,0/6,GFDLNSYGIS,VIYSDGRRTFYGDSVK,GRTAGKFNS
890 pM,6/6,GFSLDEYGIS,VIYADGRRTFYADSVK,GESAGTFDS
nd,0/6,GQQLDEYGIS,VIYADGVRSSYVDSVK,GEITGTFSQ
1.5 nM,6/6,GFSLNDYGIS,VIYSDGRRTFYGDSVK,GRTAGTFDE
6.6 nM,6/6,GFSLNSYGIS,VIYSDGRRTFYADSVK,GRAAGTFDQ

Excerpt, the first 4 entries:

CDR-H1,CDR-H2,CDR-H3,Kd,detected
GFNIDEYGIS,VIYADGDRMSYDDAVK,GQISGHIDM,nd,0/6
GFVLNEYGIS,VIYSDGRRTFYDDSVK,GRAAGTFDS,47 nM,6/6
GFDLNSYGIS,VIYSDGRRTFYADSVK,GRAVGTFDS,nd,0/6
GFTLNDYGIS,VIYSDGRRTFYGDSVK,GRCAGTFES,nd,0/6